Source: ChEMBL document CHEMBL1687705, “Design, Synthesis, and in Vitro Evaluation of Novel Aminomethyl-pyridines as DPP-4 Inhibitors” (ACS Med Chem Lett, 2010)

The chains behind the UniProt entries cited, without tags or fusion partners. Where a name states a change or a piece, a line headed by the entry shows the natural chain unless it says otherwise.
UniProt Q6V1X1: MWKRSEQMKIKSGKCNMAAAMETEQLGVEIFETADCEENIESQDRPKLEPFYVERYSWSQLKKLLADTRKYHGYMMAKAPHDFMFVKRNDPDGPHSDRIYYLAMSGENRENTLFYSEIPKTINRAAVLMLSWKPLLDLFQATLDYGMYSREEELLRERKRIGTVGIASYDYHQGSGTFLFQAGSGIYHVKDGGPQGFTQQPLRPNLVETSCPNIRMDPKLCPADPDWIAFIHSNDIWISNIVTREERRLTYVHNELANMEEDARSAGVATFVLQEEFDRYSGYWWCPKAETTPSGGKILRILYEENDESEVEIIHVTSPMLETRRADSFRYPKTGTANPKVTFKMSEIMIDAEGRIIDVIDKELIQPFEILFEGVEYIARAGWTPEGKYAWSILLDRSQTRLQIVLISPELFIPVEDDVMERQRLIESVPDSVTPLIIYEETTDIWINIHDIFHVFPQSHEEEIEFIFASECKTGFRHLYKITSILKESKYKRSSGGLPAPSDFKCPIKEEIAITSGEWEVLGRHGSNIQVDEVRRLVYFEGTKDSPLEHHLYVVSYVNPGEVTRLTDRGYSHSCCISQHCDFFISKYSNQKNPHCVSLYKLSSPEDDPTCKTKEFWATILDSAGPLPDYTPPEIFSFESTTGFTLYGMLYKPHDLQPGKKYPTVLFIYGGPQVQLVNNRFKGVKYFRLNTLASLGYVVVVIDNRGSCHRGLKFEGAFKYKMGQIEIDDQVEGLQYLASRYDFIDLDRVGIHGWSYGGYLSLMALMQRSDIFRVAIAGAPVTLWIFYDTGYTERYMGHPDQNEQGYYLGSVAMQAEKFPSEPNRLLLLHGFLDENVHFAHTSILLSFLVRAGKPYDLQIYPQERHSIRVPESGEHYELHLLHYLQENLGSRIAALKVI

Molecular target: Dipeptidyl peptidase 8 (Homo sapiens, UniProt Q6V1X1)
Assay: Inhibition of human recombinant DPP8 assessed as Gly-Pro-pNA chromogenic substrate cleavage for 16 mins preincubated with compound for 10 mins before addition of chromogenic substrate

Ki: 39 µM
Compound: CC[C@H](C)[C@H](N)C(=O)N1CCC[C@H]1C(=O)N[C@H](C(=O)O)[C@@H](C)CC [DIPROTIN A]
